Measurements taken from patent US20080015110A1.

Molecular target: dicamba monooxygenase (DMO) purified from P. maltophilia, strain DI-6 (Pseudomonas maltophilia, strain DI-6) (UniProt Q5S3I3)
Test: cell-based or functional assay

Row | Substance | Degradation of Dicamba (%) | Formation of DCSA (%)
1 | Clostridium ferredoxin | 82% | 90%
2 | purified spinach ferredoxin (from UniProt P00221 51-147) | 83% | 95%
